Data as given in PMC3091354 (Journal of chromatography. B, Analytical technologies in …, 2011).

Type: in vivo
Conditions: mouse, single i.p. 200 mg/kg

Question: Which “AUC (0-t), brain” value does the source give for `COc1cccc(CN)c1O` [3-MoSA, 3-methoxy-2-hydroxybenzylamine] here?
Answer: 1339 ± 88 µg·h/g and 1338.9 ± 87.6 µg·h/g

Values joined by “and” are separate entries in the source; they are usually repeats but may differ in a detail not shown here. Equal values may be shown once.
